{"source": "ChEMBL document CHEMBL1140703", "about": "“Design, synthesis, and biological evaluation of classical and nonclassical 2-amino-4-oxo-5-substituted-6-methylpyrrolo[3,2-d]pyrimidines as dual thymidylate synthase and dihydrofolate reductase inhibitors” (J Med Chem, 2008)", "test": "Inhibition of Toxoplasma gondii DHFR"}
{"smiles": "Nc1nc2[nH]cc(CCc3ccc(C(=O)N[C@@H](CCC(=O)O)C(=O)O)cc3)c2c(=O)[nH]1", "note": "[PEMETREXED]", "values": [{"measurement": "IC50", "value": 430, "unit": "nM"}]}
